Consider 7 molecules from patent publication US9845308B2, “Isoindoline inhibitors of ROR-gamma” (Vitae Pharmaceuticals, Inc., priority 2014, dated 2017).

The chains behind the UniProt entries cited, without tags or fusion partners. A line that says so, or that is headed by a name, gives the form on record, which may keep a tag or linker. Residues count along the entry.
UniProt P51449, 269-508: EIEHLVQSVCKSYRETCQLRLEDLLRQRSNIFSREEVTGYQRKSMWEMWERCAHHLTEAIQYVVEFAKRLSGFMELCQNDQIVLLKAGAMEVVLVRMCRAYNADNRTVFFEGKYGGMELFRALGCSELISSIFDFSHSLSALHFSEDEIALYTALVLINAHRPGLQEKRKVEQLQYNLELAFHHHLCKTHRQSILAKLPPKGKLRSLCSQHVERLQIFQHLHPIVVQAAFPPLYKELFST
UniProt P51449, other isoform, or with tags, fused parts or gaps: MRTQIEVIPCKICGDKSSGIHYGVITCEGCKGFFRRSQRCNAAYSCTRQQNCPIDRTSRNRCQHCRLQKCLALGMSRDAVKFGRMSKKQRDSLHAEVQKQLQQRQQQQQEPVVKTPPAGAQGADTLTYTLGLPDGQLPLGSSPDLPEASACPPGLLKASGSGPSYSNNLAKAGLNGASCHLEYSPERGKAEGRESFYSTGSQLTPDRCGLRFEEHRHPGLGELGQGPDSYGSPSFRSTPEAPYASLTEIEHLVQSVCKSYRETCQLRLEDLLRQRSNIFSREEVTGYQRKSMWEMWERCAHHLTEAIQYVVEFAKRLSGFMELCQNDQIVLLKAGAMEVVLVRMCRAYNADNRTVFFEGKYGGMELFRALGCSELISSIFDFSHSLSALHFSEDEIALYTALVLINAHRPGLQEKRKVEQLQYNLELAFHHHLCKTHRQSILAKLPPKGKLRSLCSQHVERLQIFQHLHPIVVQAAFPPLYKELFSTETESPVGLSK

Where two headings read alike, the source gives them in different places. A value given as a limit tells only on which side of the number the result lay.

For experiment [1], the target named is recombinant RORγ Ligand Binding Domain (LBD) protein (Homo sapiens (Human), UniProt P51449). Briefly: Radio-Ligand RORγ Binding Assay (Assay 1). Particulars: read-out: RORγ Binding Ki Range* (nM) (Assay 1). The protocol:
Radio-Ligand RORγ Binding Assay (Assay 1)
Compounds of the present invention were tested for ability to bind to RORγ in a cell-free competition assay with commercially available radio-ligand (RL), 25-hydroxy[26,27-^3H]-cholesterol (PerkinElmer, Cat. #NET674250UC), for a ligand binding site on a recombinant RORγ Ligand Binding Domain (LBD) protein expressed as a 6×His-Glutathione-S-Transferase (GST) fusion. […] The plate was shaken at 700 rpm for 20 min and incubated for 10 min at rt, after which 40 μL of poly-Lys YSi SPA beads (PerkinElmer, Cat. #RPNQ0010) were added to achieve 50 μg of the beads per well. The plate was incubated on an orbital shaker for 20 min and then for 10 min without agitation at rt. SPA signal for tritium beta radiation was registered on PerkinElmer Microbeta plate reader. […] The percent inhibition vs. concentration data were fit into a four-parameter model, and IC50 values were calculated from the fit as the concentrations corresponding to the inflection points on the dose-response curves. […]

Experiment [2] addresses full-length RORγt in Jurkat cells (Homo sapiens (Human), UniProt P51449). The experiment is described as follows: RORγt 5×RORE Assay in Jurkat Cells (Assay 2). Particulars: 5xRORE secreted Nanoluc luciferase reporter, 16-18 hrs, read-out: RORγt5X IC50 Range* (nM) (Assay 2). Type of experiment: cell-based. The protocol: [formula] RORγt 5×RORE Assay in Jurkat Cells (Assay 2)
Compounds of the present invention were tested for RORγ inverse agonist activity in a cell-based, transcriptional activity assay. […] (Promega, Cat. #N1021) using KpnI and HindIII restriction sites. […] Tested compounds were added to the cells in the same media (final concentration of DMSO was 0.1% (v/v)), and the plates were incubated at 37° C./5% CO2 for 16-18 hrs. Luciferase activity in the conditioned supernatants was determined with NanoGlo® assay reagents (Promega, Cat.#N1130).
(A reporter such as luciferase makes a cellular process visible.)

The mark [3] stands for this setting: competition with 25-hydroxy[26,27-3H]-cholesterol, SPA.

For orientation: Ki means the dissociation constant of the complex between target and ligand, obtained from inhibition or displacement. On to `CCS(=O)(=O)c1ccc(CNC(=O)c2ccc3c(c2)CN(CC2CCC(O)(C(F)(F)F)CC2)C3C(C)C)nc1` (single isomer, unassigned) [Compound 11b], for which the inhibition constant (Ki) in experiment [1] (setting [3]) was 100 to 1000 nM. As to `CCS(=O)(=O)c1ccc(CNC(=O)c2ccc3c(c2)CN(CC2CCC(O)(C(F)(F)F)CC2)C3C(C)C)nc1` (single isomer, unassigned) [Compound 11d], the inhibition constant (Ki) in experiment [1] (setting [3]) was > 1000 nM. One may read the IC50 as the midpoint of a concentration-inhibition curve. Consider `CCS(=O)(=O)c1ccc(CNC(=O)c2ccc3c(c2)C(=O)N(C[C@H]2CC[C@H](C(F)(F)F)CC2)[C@H]3C(C)C)cc1` [Compound 29, (S)—N-(4-(ethylsulfonyl)benzyl)-1-isopropyl-3-oxo-2-((trans-4-(trifluoromethyl)cyclohexyl)methyl)isoindoline-5-carboxamide], for which the Ki in experiment [1] is < 100 nM. The IC50 in experiment [2] is < 100 nM. Take `CCS(=O)(=O)c1ccc(CNC(=O)c2ccc3c(c2)CN(CC2CCC(O)(C(F)(F)F)CC2)C3C(C)C)nc1` (single isomer, unassigned) [Compound 11a]: the Ki in experiment [1] (setting [3]) was < 100 nM. The 50% inhibitory concentration (IC50) in experiment [2] is < 100 nM. As for `CCS(=O)(=O)c1ccc(CNC(=O)c2ccc3c(c2)CN(CC2CCC(O)(C(F)(F)F)CC2)C3C(C)C)nc1` (single isomer, unassigned) [Compound 11c], the Ki in experiment [1] (setting [3]) is < 100 nM. On the same count and under the same terms, in the case of `CCO[C@H]1CC[C@H](CN2Cc3cc(C(=O)N[C@@H](CCO)c4ccc(S(=O)(=O)CC)cc4)ccc3[C@H]2C(C)C)CC1` (single isomer, unassigned) [Compound 10b] it was 100 to 1000 nM. Take `CCO[C@H]1CC[C@H](CN2Cc3cc(C(=O)N[C@@H](CCO)c4ccc(S(=O)(=O)CC)cc4)ccc3[C@@H]2C(C)C)CC1` (single isomer, unassigned) [Compound 10a]: the inhibition constant Ki in experiment [1] (setting [3]) was < 100 nM. For the same molecule, in experiment [2], the half-maximal inhibitory concentration (IC50) was < 100 nM.
